Laboratory results reported in patent publication US20260382588A1, “COMPOUNDS CONTAINING A HYDROXYPHENYL MOIETY AND THEIR USE” (published 2026).

Columns and labels:
[1] = system: IRE1 phosphorylation in U87 cells; assay: IRE1 phosphorylation in U87 cells (western blot); details: treatment over 24 hours (FIG. 2A)
Protocol: (§1) FIG. 2: Compound 33 (Z4) and compound 28 (Z4P) inhibit IRE1 activity in cellular models. (A) Protein levels of IRE1 and phospho-IRE1 in U87 cells treated with compound 33 (Z4) and compound 28 (Z4P) over 24 hours. Fold change of protein expression between IRE1 and phospho-IRE1 is represented in bar chart form normalized to untreated U87 cells. (B) Quantification of XBP1s mRNA levels upon treatment with 1 μg/mL Tunicamycin over 24 hrs in the presence or absence of pre-treatments with 25 μM compound 33 (Z4) or compound 28 (Z4P) normalized to untreated U87 cells. (C) Quantification of SPARC mRNA levels in the presence of 5 μg/mL Actinomycin D and presence or absence of 10 μg/mL Tunicamycin and 9 μg/mL compound 33 (Z4) or compound 28 (Z4P) over 4 hours in U87 cells. […] The non-linear regression was calculated using the GraphPad Prism software. […]
(§2) Cell culture and treatments—U87MG (U87; ATCC) cells were authenticated as recommended by AACR (http://aacrjoumals.org/content/cell-line-authentication-information) and regularly tested for the absence of mycoplasma using MycoAlert® (Lonza, Basel, Switzerland) or MycoFluor (Invitrogen, Carlsbad, CA, USA). […] After 6 days of incubation, WST1 reagent (Roche) was added to each well and post 2-hour incubation the plate was read using a Tecan 200 colorimeter. […]

[2] = system: Xbp1 mRNA splicing in U87 cells; assay: Xbp1 mRNA splicing in tunicamycin-stressed U87 cells; details: 1 μg/mL tunicamycin, 24 hrs, 25 μM compound (FIG. 2B)
Protocol: as §1, §2
Quantitative real-time PCR—Total RNA was prepared using TRIzol reagent (Invitrogen, Carlsbad, CA, USA). […]

Structure (SMILES): Cc1ccc(C)c(NC(=O)NC(C)CCc2ccc(O)cc2)c1 (racemic)
- reduction of IRE1 phosphorylation [1]: about 25%
- Xbp1 mRNA splicing [2]: inhibited Xbp1 mRNA splicing

Structure (SMILES): Cc1ccc(C(N)=O)cc1NC(=O)NC(C)CCc1ccc(O)cc1 (racemic)
- reduction of IRE1 phosphorylation [1]: about 25%
- Xbp1 mRNA splicing [2]: inhibited Xbp1 mRNA splicing
